# Apparent affinities of Ab-95 variants for a coronavirus HR2 peptide

Target: peptide PDVDLGDISGINAS, taken from heptad repeat 2 (HR2) of SARS-CoV-2 spike.

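The starting antibody came from a phage panning campaign against this peptide. The library (AAYL52) carries one to three amino acid substitutions per variant, with no insertions or deletions. The scFvs were displayed on barcoded MATa yeast, the peptide on MATalpha yeast. Mating (16 h, 30 °C) was followed by selection of diploids and sequencing of their barcodes. A regression on co-assayed BCL2-family reference pairs converts the normalised counts of each replicate to an apparent Kd. Each pool was mated in three replicate cultures.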

Ab-95 is the parent antibody, in scFv form: VH, then a 15-residue (Gly4Ser)3 linker, then VL. The heavy chain is unchanged in all variants.
VH: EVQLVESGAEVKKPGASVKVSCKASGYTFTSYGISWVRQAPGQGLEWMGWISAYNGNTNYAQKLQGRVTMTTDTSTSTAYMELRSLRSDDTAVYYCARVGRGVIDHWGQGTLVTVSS
VL: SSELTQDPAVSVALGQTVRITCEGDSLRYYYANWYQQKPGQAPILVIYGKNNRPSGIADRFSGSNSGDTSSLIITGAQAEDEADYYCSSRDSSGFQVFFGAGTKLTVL

The parent's light chain CDRs are EGDSLRYYYAN, GKNNRPS, SSRDSSGFQVF; each variant's own CDRs replace them letter for letter.
All variants listed here change F95 of the VL, counted from its first residue.
Values are apparent Kd, the geometric mean of the replicates that gave a signal; lower means stronger binding.
Where no diploid with the target was found in any replicate, the entry reads "no signal": below detection, most likely a poor binder, though not proof of it.
The list is sorted by this average, lowest first, undetected variants last.

With EGDSLRYNYAN | GKNNRPS | SSRDSSGPLVF the result was 2.9 nM (3 of 3 replicates).
With EGLSLRYNYAN | GKNNRPS | SSRDSSGNQVF the result was 11 nM (3 of 3 replicates).
With EGDSLRYKYAN | GKNNRPS | SSRDSSGPQVF the result was 27 nM (3 of 3 replicates).
With EGDSLRYYYAN | GKNNRPS | SSRDSSGGQVF the result was 110 nM (3 of 3 replicates).
With EGDSLRYYYAN | GKNNRPE | SFRDSSGSQVF the result was 120 nM (3 of 3 replicates).
With EGDSLRYYYAN | GKNNRPS | ASRDSSGTMVF the result was 170 nM (3 of 3 replicates).
With TGDSLRYYYAN | GKNGRPS | SSRDSSGCQVF the result was 230 nM (3 of 3 replicates).
With RGDSLRYYYAN | GKNNSPS | SSRDSSGRQVF the result was 230 nM (3 of 3 replicates).
With EGDSLRYYYAN | GKNERPS | SSRDSSRIQVF the result was 250 nM (3 of 3 replicates).
With EGDSLRYYYAN | GKNNRPH | SSRDSSHWQVF the result was 320 nM (3 of 3 replicates).
With EGDSLKYYYAN | GKNNRPS | SSRDSSGAFVF the result was 340 nM (3 of 3 replicates).
With EGDSLRYYYAN | GKNNRPS | SSRDSSGDQVC the result was 360 nM (3 of 3 replicates).
With EGDSLRYYYAN | GKSNRPS | SSRDSSGTQVF the result was 420 nM (3 of 3 replicates).
With EGDSMRYYAAN | GKNNRPS | SSRDSSGHQVF the result was 540 nM (3 of 3 replicates).
With IGDSLRYYYAN | GKNNRPS | SSRDSSGNQVF the result was 800 nM (3 of 3 replicates).
With EGDSLRDYYAN | GKNNRES | SSRDSSGMQVF the result was 950 nM (3 of 3 replicates).
With EGDRLRYYYAN | GKNNRPS | SSRDLSGEQVF the result was 1.3 µM (2 of 3 replicates).
With EGDSLRYYYAN | GKNNRWS | SSRDPSGSQVF the result was 1.4 µM (3 of 3 replicates).
With EGDSLRRYYAN | GKNNRPS | SSRDSSLAQVF the result was 1.4 µM (2 of 3 replicates).
With EGDFLRYYYAN | GKNNRPS | SSRDSSGCQVF the result was 1.6 µM (2 of 3 replicates).
With EGDSLRYYYAN | GKNNRWS | SSRDSSMSQVF the result was 1.8 µM (2 of 3 replicates).
With AGDSLRYYYAN | GDNNRPS | SSRDSSGVQVF the result was 1.8 µM (3 of 3 replicates).
With EGDSLRFYYAN | GVNNRPS | SSRDSSGSQVF the result was 2.0 µM (3 of 3 replicates).
With EGDSLRYYYAN | GKNNRPS | SMRDSSGRQVI the result was 2.2 µM (2 of 3 replicates).
With EGDTLIYYYAN | GKNNRPS | SSRDSSGMQVF the result was 2.5 µM (1 of 3 replicates).
With EGDSLRYYYAN | GKNNRPW | SSRASSGIQVF the result was 2.5 µM (3 of 3 replicates).
With DGKSLRYYYAN | GKNNRPS | SSRDSSGCQVF the result was 2.6 µM (3 of 3 replicates).
With EGDVLRYYYAN | GKNNRPS | SLRDSSGTQVF the result was 3.1 µM (2 of 3 replicates).
With EGDSLRYYYAN | GKVNRPY | SSRDSSGMQVF the result was 3.8 µM (3 of 3 replicates).
With EGDSLRYYYMN | GINNRPS | SSRDSSGQQVF the result was 6.2 µM (3 of 3 replicates).
With EGDSLNYYYAN | GKNNRPS | SSRDSSGMQEF the result was 12 µM (1 of 3 replicates).
With EGDSLRYYVAE | GKNNRPS | SSRDSSGMQVF the result was 16 µM (2 of 3 replicates).
With EGDSIRYYYAN | GKNNRPS | SSRDSSGCQVD the result was 17 µM (2 of 3 replicates).
With EGDSLRCYYAN | GKPNRPS | SSRDSSGIQVF the result was 17 µM (2 of 3 replicates).
With EGDSLRYYYAN | GKNNRPS | GSRDSSGKYVF the result was 23 µM (3 of 3 replicates).
With EGDSLRYYYKN | GKNNRPS | SSRDSSGWEVF the result was 39 µM (3 of 3 replicates).
With KGDSLRYYYAN | WKNNRPS | SSRDSSGLQVF the result was 44 µM (2 of 3 replicates).
With EGDSLRYYYAL | SKNNRPS | SSRDSSGAQVF the result was 260 µM (1 of 3 replicates).
With EGDSHRYYYAN | GKNNRPS | SSRDSYGSQVF the result was no signal (0 of 3 replicates).

In this assay the parent's reference entry averaged 200 nM; its copy inside this library read 180 nM.
Nonspecific signal, from three strains lacking the peptide, appeared in 28% of pairings of library AAYL52, centred on 8.2 µM (5% of these signals below 800 nM); values are not corrected for it.

Source: Engelhart et al. 2022 (doi:10.1038/s41597-022-01779-4), MIT Lincoln Laboratory and A-Alpha Bio; data file from the FLAb repository.